Experimental data taken from patent US11352331B2, “Crystal and salt of 4-(naphthalen-1-yl)-4H-1,2,4-triazole compound and preparation method therefor” (MEDSHINE DISCOVERY INC., priority 2017, dated 2022).
Read-outs that look alike come from different tables or passages of the source.

Molecular target: T1, OAT-4 (Homo sapiens, UniProt Q9NSA0)
T1 construct: expressed in transfected cells; host or cells: MDCK (canine kidney) cells; the empty-vector control is pcDNA3.1
T1 sequence (Q9NSA0 1-550): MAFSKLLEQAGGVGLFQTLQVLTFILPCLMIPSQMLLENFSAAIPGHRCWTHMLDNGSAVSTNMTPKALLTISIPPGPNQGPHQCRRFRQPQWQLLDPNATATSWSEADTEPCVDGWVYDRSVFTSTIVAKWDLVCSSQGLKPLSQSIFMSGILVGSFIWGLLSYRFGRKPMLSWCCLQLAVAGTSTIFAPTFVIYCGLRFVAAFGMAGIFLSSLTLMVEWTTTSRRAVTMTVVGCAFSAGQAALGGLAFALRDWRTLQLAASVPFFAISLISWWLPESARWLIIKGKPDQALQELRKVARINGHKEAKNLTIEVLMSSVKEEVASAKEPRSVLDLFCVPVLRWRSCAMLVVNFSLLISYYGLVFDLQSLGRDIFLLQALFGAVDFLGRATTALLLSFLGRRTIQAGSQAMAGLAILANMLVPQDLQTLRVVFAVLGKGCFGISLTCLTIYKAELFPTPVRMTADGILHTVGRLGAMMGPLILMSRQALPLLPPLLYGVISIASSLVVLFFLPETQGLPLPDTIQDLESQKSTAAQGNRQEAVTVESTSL
Experiment: Inhibition of substrate uptake in MDCK cells overexpressing OAT-4
Format: cell-based
Settings: for IC50: MDCK-OAT4 cells

Compound: O=C(O)CSc1nnc(Br)n1-c1ccc(C2CC2)c2ccccc12 (racemic) [(±)-Lesinurad, lesinurad, reference compound]
- IC50 (substrate 3H-estrone ammonium sulfate, read-out: IC50 of the inhibition on OAT-4 transporting 3H-ES (3H-estrone ammonium sulfate)): 12.7 µM
- IC50 (substrate 14C-uric acid, read-out: IC50 of the inhibition on OAT-4 transporting 14C-UA (14C-uric acid)): 2.17 µM
- Inhibition on OAT-4 mediated estrone sulfate ammonium salt transport compared with URAT-1 mediated uric acid transport (comparison of IC50 values): 2 times
- Inhibition on OAT-4 mediated uric acid transport compared with URAT-1 mediated uric acid transport (comparison of IC50 values): 11 times
